Test system: Sprague-Dawley rats
Experiment: Blood glucose depression by intracolonically administered bovine pancreatic insulin with absorption enhancer
Conditions: enhancer dose 25 mg/Kg; insulin 7 mg/Kg; procedure of Example 12

With `CCCCCCNC(=O)c1ccc(NC(=O)CCC(=O)O)cc1O` [Example 16] the “50% depression at 60 min. (blood glucose from basal level)” value was “positive”.

From patent publication US20070269494A1, “Compositions and methods for enhancing active agent absorption” (Nexus Pharma, Inc., priority 2006, published 2007)
